Our source for the activation values is PubChem BioAssay AID624172 (National Center for Advancing Translational Sciences (NCATS), 2012).

Chains of the proteins cited; added tags and fusions are not shown. Lines headed by an entry give the natural chain unless they say otherwise; changes in a name come on top.
UniProt P43220, whole entry, stated change not applied: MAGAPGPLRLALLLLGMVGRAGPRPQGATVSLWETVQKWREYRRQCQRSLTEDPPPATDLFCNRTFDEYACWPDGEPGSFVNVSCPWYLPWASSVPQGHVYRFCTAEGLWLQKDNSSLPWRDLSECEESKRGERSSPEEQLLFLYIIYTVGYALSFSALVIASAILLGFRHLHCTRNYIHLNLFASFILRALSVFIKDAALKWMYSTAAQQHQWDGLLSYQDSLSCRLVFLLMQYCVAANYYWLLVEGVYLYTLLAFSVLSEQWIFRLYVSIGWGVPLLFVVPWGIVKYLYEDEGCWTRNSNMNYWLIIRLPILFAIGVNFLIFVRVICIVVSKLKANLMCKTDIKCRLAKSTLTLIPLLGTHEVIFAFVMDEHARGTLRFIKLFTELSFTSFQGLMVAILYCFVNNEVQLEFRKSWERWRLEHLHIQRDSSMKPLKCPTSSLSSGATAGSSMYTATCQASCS

This is a selection; strong and weak results do not stand in their true shares. Some structures show a salt or complex split into parts, the way the source records it. The source made the active and inactive calls. Calls follow the shape of the dose curve; as a rule, active = well fitted activation curve with a large enough effect; inconclusive = small, poorly fitted or top-dose-only effect; inactive = no such curve, though single readings can be large or run the other way.

This experiment addresses Glucagon-like peptide 1 receptor (Homo sapiens) (UniProt P43220). Description: qHTS of GLP-1 Receptor Agonists. Also: % of control where 0% means no effect. To be noted: HEK293 GLP-1R CRE-luciferase, luminescence, 4-6 h, cells express a hypersensitive GLP-1R form; at 45.6 µM (top of the series). The text has this: The overall goal of this project was to develop a novel assay for discovering small molecule ligands for class B1 G protein-coupled receptors (GPCRs). Very few agonists (or inverse agonists) with generally weak activity for this entire group of physiologically important receptors are known to date. To establish proof-of-principle that this critical bottleneck can be overcome with a suitable screening approach, our studies focused on the class B1 receptor for glucagon-like peptide-1 (GLP-1R), a potential therapeutic target for diabetes and neurodegenerative disease.
The assay was developed in a "mix and measure" format using a cell-based functional readout. Toward this goal, stably transfected HEK293 cell clones were established that co-express (i) a cAMP-responsive luciferase reporter gene, and (ii) GLP-1Rs that upon ligand interaction either stimulate (agonists) or inhibit (inverse agonists) luciferase activity. In different cell lines to be used for screening, expressed GLP-1Rs are specifically optimized for high sensitivity detection of either weak agonists (hypersensitive receptor) or inverse agonists (constitutively active receptor mutant). In addition, control cell lines were developed that express either the cAMP-responsive reporter gene without recombinant GLP-1Rs (enabling initial exclusion of GLP-1R independent effects of candidate probes), or the reporter gene together with wild type GLP-1Rs (for confirmation of probe activity at this receptor), or the reporter gene in combination with the constitutively active orphan receptor GPR119 (enabling initial exclusion of GLP-1R independent inhibitory effects of candidate inverse agonists).
To that end, this assay was optimized for 1536-well format and screened against the MLSMR.
NIH Molecular Libraries Probe Production Network [MLPCN]
NIH Chemical Genomics Center [NCGC]
PI Name: Martin Beinborn, Tufts Medical Center
In a white solid 1536-well plate, 6 uL of cells are dispensed in DMEM without phenol red, 10% Nu serum, and 1% pen-strep medium. The plates are then incubated for 12 hours at 37 deg C at 5% CO2 before 23 nL of compounds are added. After a 4-6 hr incubation at37 deg C and 5% CO2, 3 uL of detection reagent are added and after a 12 min incubation at RT, a luminescent read is obtained on the ViewLux.
For orientation: In qHTS, concentration-response curves come from the screen itself.
As to `O=C(OC1CN2CCC1CC2)c1ccc([N+](=O)[O-])cc1` (centres undefined), the activation was inactive: 5.53%.

Regarding `CN1CCC(Nc2cccc(F)c2)CC1`, the activation is inactive: -0.68%.

Regarding `O=C(NCC1(N2CCCCC2)CCCCC1)c1cncc(Br)c1`, the activation was inactive: -6.57%.

Take `COc1ccc2c(c1O)-c1c(O)c(OC)cc3c1[C@H](C2)[N+](C)(C)CC3.O=[N+]([O-])c1cc([N+](=O)[O-])c([O-])c([N+](=O)[O-])c1[O-]`: the activation is inactive: -4.28%.

Consider `O=[N+]([O-])c1cc([N+](=O)[O-])c(Nc2ccc(Cl)cc2)c([N+](=O)[O-])c1`, for which the activation is inactive: -2.97%.

On to `COc1ccc(C(c2nnnn2C2CCCC2)N2CCC(n3c(=O)[nH]c4ccccc43)CC2)cc1` (centres undefined), for which the activation is inactive: -6.08%.

For the compound `O=C(NCC1(N2CCOCC2)CCCCC1)c1ccccc1Br`, the activation was inactive: 10.7%.

With `CCCOc1ccc(C(=O)NCC2(N(C)C)CCCCC2)cc1OC`, the activation is inactive: 14.1%.

As for `Cc1ccc(C(=O)NCC2(N(C)C)CCCCC2)o1`, the activation was inactive: 2.31%.

Take `COc1ccc(C(=O)NCC2(N3CCCCC3)CCCCC2)c(OC)c1OC`: the activation is inactive: -8.05%.

As to `CC(C)(C)OC(=O)N1CCC(N(C(=O)c2ccccc2)c2ccc(F)cc2)CC1`, the activation is inactive: 1.09%.

`CCC(c1nnnn1C1CCCC1)N1CCC(n2c(=O)[nH]c3ccccc32)CC1` (centres undefined): the activation was inactive: -2.54%.

As to `COc1ccc(C(=O)NCC2(N3CCCCC3)CCCCC2)cc1`, the activation is inactive: 1.87%.

Turning to `CCCCn1nnnc1C(CC)N1CCC(n2c(=O)[nH]c3ccccc32)CC1` (centres undefined), the activation is inactive: 3.19%.

Regarding `O=C(NCC1(N2CCCCC2)CCCCC1)c1cccs1`, the activation is inactive: 5.51%.

As to `CCCCn1nnnc1C(c1cccs1)N1CCC(n2c(=O)[nH]c3ccccc32)CC1` (centres undefined), the activation is inactive: -5.08%.

Turning to `O=C(NCC1(N2CCCCC2)CCCCC1)c1ccc(=O)[nH]c1`, the activation is inactive: -0.316%.

With `Cc1cccc(NC2(C#N)CCN(Cc3ccccc3)CC2)c1`, the activation is inactive: -0.0878%.

Regarding `CSc1ccccc1C(=O)NCC1(N2CCCCC2)CCCCC1`, the activation was inactive: 10.9%.

Turning to `Cc1cc(C)cc(N(C(=O)c2ccccc2)C2CCN(C(=O)OC(C)(C)C)CC2)c1`, the activation was inactive: 16.9%.

In the case of `O=C(NCC1(N2CCCCC2)CCCCC1)c1ccc(Cl)nc1`, the activation was inactive: 6.4%.

For the compound `O=c1[nH]c2ccccc2n1C1CCN(C(c2ccccc2OC(F)(F)F)c2nnnn2C2CCCCC2)CC1` (centres undefined), the activation is inactive: 3.38%.

As for `O=C(NCC1(N2CCOCC2)CCCCC1)c1cc2ccccc2o1`, the activation is inactive: -0.855%.

Regarding `COc1ccc(Cl)cc1C(=O)NCC1(N2CCOCC2)CCCCC1`, the activation is inactive: -0.944%.

For `O=C1C(O)=C([N+](=O)[O-])C(=O)C(O)=C1[N+](=O)[O-]`, the activation is inactive: -1.81%.

With `O=C(NCC1(N2CCCCC2)CCCCC1)c1ccc(Cl)s1`, the activation was inactive: -19.1%.

Regarding `N#CC1(Nc2ccccc2)CCN(Cc2ccccc2)CC1`, the activation was inactive: -8.6%.

As for `O=C(OC1CN2CCC1CC2)C1c2ccccc2Oc2ccccc21` (centres undefined), the activation was inactive: -2.27%.

As for `O=c1[nH]c2ccccc2n1C1CCN(C(c2cc3ccccc3o2)c2nnnn2C2CCCCC2)CC1` (centres undefined), the activation was inactive: -1.69%.

For `CCCCn1nnnc1C(c1ccc(OC)cc1)N1CCC(n2c(=O)[nH]c3ccccc32)CC1` (centres undefined), the activation is inactive: -1.92%.

With `CCOC(=O)N1CCC(Nc2ccc(OC)cc2)CC1`, the activation was inactive: -0.291%.

On to `O=C1CCN(Cc2ccccc2)CC1`, for which the activation is inactive: -3.55%.

In the case of `O=C(NCC1(N2CCOCC2)CCCCC1)c1ccc(Cl)cc1`, the activation was inactive: -6.97%.

For the compound `CC(C)(C)n1nnnc1C(c1ccccc1)N1CCC(n2c(=O)[nH]c3ccccc32)CC1` (centres undefined), the activation was inactive: 5.37%.

In the case of `CCOc1ccc(C)cc1CN(CCCl)CCCl`, the activation was inactive: -1.7%.

In the case of `COc1ccccc1C(=O)NCC1(N2CCOCC2)CCCCC1`, the activation was inactive: -2.32%.

Take `COc1ccc(NC2CCN(CCc3ccccc3)CC2)c(OC)c1`: the activation was inactive: 31.7%.

For the compound `CCOC(=O)N1CCC(Nc2ccc(F)cc2)CC1`, the activation was inactive: -5.63%.

Regarding `CCCCn1nnnc1C(c1cc2ccccc2o1)N1CCC(n2c(=O)[nH]c3ccccc32)CC1` (centres undefined), the activation was inactive: 8.71%.

As for `O=P1(N(CCCl)CCCl)SCCCS1`, the activation was inactive: 8.86%.

Regarding `CCCCOc1ccc(C(=O)NCC2(N3CCOCC3)CCCCC2)cc1`, the activation is inactive: 15.8%.

On to `O=C(NCC1(N2CCCCC2)CCCCC1)c1ccc(F)cc1`, for which the activation was inactive: 5.47%.

With `O=c1[nH]c2ccccc2n1C1CCN(C(c2ccccc2)c2nnnn2C2CCCCC2)CC1` (centres undefined), the activation is inactive: -0.612%.

For `CCOC(=O)N1CCC(Nc2cccc(C)c2)CC1`, the activation was inactive: -6.64%.

For the compound `COc1cc(C(=O)NCC2(N(C)C)CCCCC2)ccc1OC(F)F`, the activation is inactive: 14.3%.

As for `O=c1[nH]c2ccccc2n1C1CCN(C(c2cccc3ccccc23)c2nnnn2C2CCCC2)CC1` (centres undefined), the activation was inactive: -5.67%.

`CCC(c1nnnn1C1CCCCC1)N1CCC(n2c(=O)[nH]c3ccccc32)CC1` (centres undefined): the activation was inactive: 1.05%.

In the case of `COc1cccc(C(c2nnnn2C2CCCCC2)N2CCC(n3c(=O)[nH]c4ccccc43)CC2)c1OC` (centres undefined), the activation was inactive: -5.56%.

On to `CC(=O)N(c1ccccc1)C1CCNCC1`, for which the activation was inactive: 9.43%.

As to `COc1cc(OC)cc(C(=O)NCC2(N3CCCCC3)CCCCC2)c1`, the activation is inactive: 2.71%.

`O=c1[nH]c2ccccc2n1C1CCN(C(c2ccnc3ccccc23)c2nnnn2C2CCCCC2)CC1` (centres undefined): the activation is inactive: 3.14%.

For the compound `Fc1ccccc1NC1CCN(Cc2ccccc2)CC1`, the activation is inactive: -0.493%.

For the compound `Cc1ccc(Nc2c([N+](=O)[O-])cc([N+](=O)[O-])cc2[N+](=O)[O-])cc1`, the activation was inactive: -5.8%.

On to `Cc1ccc(C(=O)NCC2(N3CCCCC3)CCCCC2)o1`, for which the activation is inactive: -4.37%.

In the case of `Cc1ccc(NC2(C#N)CCN(Cc3ccccc3)CC2)cc1`, the activation was inactive: -6.31%.

Turning to `COc1ccc(C(c2nnnn2C2CCCCC2)N2CCC(n3c(=O)[nH]c4ccccc43)CC2)cc1` (centres undefined), the activation is inactive: -3.14%.

In the case of `CCN1CCC(Nc2cccc(F)c2)CC1`, the activation is inactive: -11.4%.

In the case of `CC(C)(C)n1nnnc1C(c1ccnc2ccccc12)N1CCC(n2c(=O)[nH]c3ccccc32)CC1` (centres undefined), the activation is inactive: 14.4%.

Turning to `Cc1ccccc1NC1(C#N)CCN(Cc2ccccc2)CC1`, the activation is inactive: 5.77%.
